Values of other authors in US8791093B2, “Pharmaceutical delivery systems for treatment of substance abuse and other addictions” (priority 2009, dated 2014).

Tested on: CB1 receptor
Conditions: animals

## Cc1c(C(=O)NN2CCCCC2)nn(-c2ccc(Cl)cc2Cl)c1-c1ccc(Cl)cc1 [Rimonabant]
  dopamine-releasing, discriminative and rewarding effects of Delta(9)-THC: blocks
